Data as given in PubChem BioAssay AID1347165 (National Center for Advancing Translational Sciences (NCATS), 2019).
Several values for one entry are separate records, joined by “and”; a condition that tells them apart may be missing. Equal values may be shown once. Only a part is listed here, and it is no random draw. Inconclusive results are not listed. Activity calls are given as the source filed them. The call rests on the fitted dose curve; in most records, active means well fitted inhibition curve with a large enough effect; inconclusive means small, poorly fitted or top-dose-only effect; inactive means no such curve, though single readings can be large or run the other way.

The chains behind the UniProt entries cited, without tags or fusion partners.
UniProt Q9UGL1, whole entry: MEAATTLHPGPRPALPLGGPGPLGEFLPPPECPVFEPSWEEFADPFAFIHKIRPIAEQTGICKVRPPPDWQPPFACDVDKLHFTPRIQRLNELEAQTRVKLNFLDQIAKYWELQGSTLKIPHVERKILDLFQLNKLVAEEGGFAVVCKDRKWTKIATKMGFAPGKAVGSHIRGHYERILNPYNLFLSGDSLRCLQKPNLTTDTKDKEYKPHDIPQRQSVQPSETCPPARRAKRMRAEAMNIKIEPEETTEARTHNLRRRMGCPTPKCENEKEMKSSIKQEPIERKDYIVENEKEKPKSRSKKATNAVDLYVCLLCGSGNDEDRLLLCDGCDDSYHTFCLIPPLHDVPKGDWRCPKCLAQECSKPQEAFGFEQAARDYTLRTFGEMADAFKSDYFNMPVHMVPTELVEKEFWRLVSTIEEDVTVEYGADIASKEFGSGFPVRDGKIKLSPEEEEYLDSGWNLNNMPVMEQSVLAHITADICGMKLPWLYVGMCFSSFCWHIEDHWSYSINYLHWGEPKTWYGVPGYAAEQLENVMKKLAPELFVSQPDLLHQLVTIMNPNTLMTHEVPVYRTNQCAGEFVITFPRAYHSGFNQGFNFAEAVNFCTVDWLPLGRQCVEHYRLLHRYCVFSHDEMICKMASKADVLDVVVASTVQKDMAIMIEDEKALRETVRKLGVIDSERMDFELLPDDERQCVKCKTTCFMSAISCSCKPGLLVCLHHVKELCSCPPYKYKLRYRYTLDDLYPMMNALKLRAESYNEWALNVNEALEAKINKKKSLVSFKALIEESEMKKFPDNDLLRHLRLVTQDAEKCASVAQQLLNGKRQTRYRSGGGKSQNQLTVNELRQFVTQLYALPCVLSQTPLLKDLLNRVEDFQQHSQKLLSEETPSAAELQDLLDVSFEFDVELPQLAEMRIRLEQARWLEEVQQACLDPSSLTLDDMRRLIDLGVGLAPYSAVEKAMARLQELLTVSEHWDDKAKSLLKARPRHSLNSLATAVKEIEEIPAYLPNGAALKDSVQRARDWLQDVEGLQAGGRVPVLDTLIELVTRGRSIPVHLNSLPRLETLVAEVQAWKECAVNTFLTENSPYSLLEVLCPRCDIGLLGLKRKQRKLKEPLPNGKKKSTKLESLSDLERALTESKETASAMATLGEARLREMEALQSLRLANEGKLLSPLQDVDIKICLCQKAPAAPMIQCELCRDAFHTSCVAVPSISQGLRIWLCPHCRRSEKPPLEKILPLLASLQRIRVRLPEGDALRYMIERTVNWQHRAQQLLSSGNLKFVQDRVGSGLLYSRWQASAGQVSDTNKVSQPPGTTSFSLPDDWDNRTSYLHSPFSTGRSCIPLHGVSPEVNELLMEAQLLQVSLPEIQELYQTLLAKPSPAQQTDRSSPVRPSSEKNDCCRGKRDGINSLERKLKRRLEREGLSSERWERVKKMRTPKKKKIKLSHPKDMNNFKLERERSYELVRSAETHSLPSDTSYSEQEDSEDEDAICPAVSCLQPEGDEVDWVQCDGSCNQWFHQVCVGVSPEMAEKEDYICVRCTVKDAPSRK

Target: Lysine-specific demethylase 5B (Homo sapiens) (UniProt Q9UGL1)
Test: Primary screen for KDM5B Histone Demethylases FDH-coupled qHTS; further: 0% is about no effect; nearly all actives have a fitted effect of over 70% in size
Details: FDH-coupled NADH fluorescence (FDH is formaldehyde dehydrogenase); at 57.7 µM (top of the series)
Description: Assay Submitter (PI): Qin Yan, Ph.D. (Yale University) and Xiaodong Cheng, Ph.D. (MD Anderson) This project was funded as part of the NCI NEXT Program and Chemical Biology Consortium (CBC) The histone demethylases, KDM5A and KDM5B catalyze the demethylation of lysine 4 on histone H3 (H3K4me3/2). They are overexpressed in a variety of cancers and have been implicated in cancer cell growth, metastasis, drug resistance, and tumor growth. KDM5A is amplified and overexpressed in breast and gastric cancer; and is translocated in leukemia. While KDM5B is highly expressed in human mammary tumors and breast cancer cell lines, but not in normal adult breast tissue. Moreover, knockdown of KDM5B leads to upregulation of tumor suppressor genes, including BRCA1. The goal of this project is to employ qHTS to identify selective small molecule inhibitors of KDM5A/B demethylase activity to better understand the role of KDM5 in cancer and to develop novel therapies. We employed an FDH-coupled assay previously reported by Sakurai et al. to monitor in vitro KDM5 demethylase activity. Compounds showing dose response inhibition are re-acquired, validated, and tested for non-specific interference with the formaldehyde dehydrogenase (FDH) counterscreen. True inhibitors are validated using an AlphaLisa secondary screen, which employs an H3K4(me2-1)-specific antibody to monitor demethylation of a biotin-tagged H3K4(me3) peptide substrate. Inhibitors are profiled against KDM4A and KDM6A AlphaLisa counterscreens to determine level of demethylase specificity; and against the TruHits counterscreen to eliminate non-specific inhibitory activity on the AlphaLISA detection method. Selective inhibitors identified from the primary and secondary screening are tested in cells using immunofluorescence to monitor global H3K4 tri-methylation as a measure of KDM5A/B inhibition. Early Translation Branch (ETB) National Center for Advancing Translational Sciences (NCATS), Rockville, MD National Institute of Health (NIH), Bethesda, Maryland [1] Sakurai, M et al. A miniaturized screen for inhibitors of Jumonji histone demethylases. Mol Biosyst. 2010 Feb;6(2):357-64. doi: 10.1039/b912993f. Epub 2009 Oct 8.
Materials: 1536-well Black, solid bottom, medium binding assay plate is purchased from Greiner Bio-one. The enzymes (KDM5B) and substrate (H3K4me3/2) are provided by the principal investigators. The buffer for this assay is composed of 50mM HEPES at pH 7.5 with 0.01% Tween-20. FDH coupled Demethylase qHTS protocol: Three microliter enzyme mix (buffer + 200nM KDM5BDeltaAP final concentration) is dispensed into the assay plate using the BioRAPTR Flying Reagent Dispenser (FRD; […]). Compound (at various final concentration) and control solution is pin transferred to the assay plate using the Kalypsys 1536-pin tool apparatus. The assay plate is incubated for 10 min at room temperature followed by addition of 1uL substrate mix (buffer + 100uM ascorbic acid, 50uM ferrous ammonium sulfate, 12.5uM H3K4Me3, 25uM a-ketoglutarate, 0.25 mM NAD+, 0.25 U/mL formaldehyde dehydrogenase using the FRD yielding a total reaction volume of 4 uL. Initial fluorescence (Read1) is detected using the PerkinElmer ViewLux plate reader equipped with 340 nm excitation and 450 nm emission filters. The final fluorescence (Read2) signal is obtained after 30 min of room temperature incubation. Delta RFU is calculated (Read2 - Read1) and is used to generated dose response curves.

| Structure (SMILES) | activity change, negative = inhibition |
| --- | --- |
| CCOc1ccc(C(=O)NCC2(N3CCOCC3)CCCCC2)cc1 | inactive: -3% |
| O=C(NCC1(N2CCOCC2)CCCCC1)c1cc2c(s1)CCCC2 | inactive: -15% |
| CCc1cc(C(=O)NCC2(N3CCOCC3)CCCCC2)sc1C | inactive: 2.58% |
| CCCOc1cccc(C(=O)NCC2(N(C)C)CCCCC2)c1 | inactive: -1.09% |
| CCCOc1cccc(C(=O)NCC2(N3CCOCC3)CCCCC2)c1 | inactive: -16.7% |
| O=C(NCC1(N2CCOCC2)CCCCC1)c1ccccc1Br | inactive: -2.77% |
| CCCCOc1ccccc1C(=O)NCC1(N2CCOCC2)CCCCC1 | inactive: -11.4% |
| O=C(NCC1(N2CCOCC2)CCCCC1)c1c[nH]c2ccccc12 | inactive: 3.93% |
| O=C(NCC1(N2CCCCC2)CCCCC1)c1cncc(Br)c1 | inactive: -19.6% |
| COc1ccccc1C(=O)NCC1(N(C)C)CCCCC1 | inactive: 24.6% |
| CC1CN(CCc2ccccc2)CCC1=O (centres undefined) | inactive: 2.93% |
| COc1ccccc1C(=O)NCC1(N2CCOCC2)CCCCC1 | inactive: -28.4% |
| CN(C)C1(CNC(=O)c2nn(C)c(=O)c3ccccc23)CCCCC1 | inactive: -11.6% |
| O=C(NCC1(N2CCOCC2)CCCCC1)c1ccc(Cl)cc1 | inactive: -13.2% |
| Cc1ccc(C(C)CCN(CCCl)CCCl)cc1 (centres undefined) | inactive: 0.336% |
| O=C(NCC1(N2CCCCC2)CCCCC1)c1c[nH]c2ccccc12 | inactive: 3.45% |
| CCCOc1ccccc1C(=O)NCC1(N2CCOCC2)CCCCC1 | inactive: 9.3% |

| Structure (SMILES) | activity change, negative = inhibition |
| --- | --- |
| CN(C)C1(CNC(=O)c2cc3c(s2)CCC3)CCCCC1 | inactive: -29.5% |
| CC1CN(CCc2ccccc2)C(C)CC1=O (centres undefined) | inactive: 18.7% |
| CC(C)(C)c1ccc(C(=O)NCC2(N3CCOCC3)CCCCC2)cc1 | inactive: -15.1% |
| Cc1ccccc1C(=O)NCC1(N(C)C)CCCCC1 | inactive: 6.03% |
| Cn1cc(C(=O)NCC2(N3CCOCC3)CCCCC2)c2ccccc21 | inactive: -1.78% |
| CCCOc1ccc(C(=O)NCC2(N(C)C)CCCCC2)cc1 | inactive: 28.4% and inactive: -8.69% |
| CCCOc1ccccc1C(=O)NCC1(N(C)C)CCCCC1 | inactive: 29.2% |
| Cc1ccc2oc(C(=O)NCC3(N4CCCCC4)CCCCC3)cc(=O)c2c1 | inactive: 14% |
| COc1cc(C(=O)NCC2(N3CCOCC3)CCCCC2)cc(OC)c1OC | inactive: 17% |
| O=C(NCC1(N2CCOCC2)CCCCC1)c1n[nH]c(=O)c2ccccc12 | inactive: 30.9% |
| Cn1nc(C(=O)NCC2(N3CCOCC3)CCCCC2)c2ccccc2c1=O | inactive: 11% |
| Cc1cc(NC2CCN(Cc3ccccc3)CC2)ccc1Br | inactive: 8.62% |
| O=C(NCC1(N2CCCCC2)CCCCC1)c1n[nH]c(=O)c2ccccc12 | inactive: -6.8% |
| CC1C(=O)CCN(CCc2ccccc2)C1C (centres undefined) | inactive: 16.2% |
| O=C(NCC1(N2CCOCC2)CCCCC1)c1ccc([N+](=O)[O-])cc1 | inactive: -25.7% |
| O=C(NCC1(N2CCOCC2)CCCCC1)c1ccccc1[N+](=O)[O-] | inactive: -2.82% |
| O=C(NCC1(N2CCOCC2)CCCCC1)c1ccccc1 | inactive: -43.1% |
